The source of these data is PMC6135396, “Repurposing antimalarial aminoquinolines and related compounds for treatment of retinal neovascularization” (PLoS ONE, 2018).

SMILES strings stand for the structures.

Assay [1] concerns HRECs. As to conditions: VEGF 100 ng/mL, Ap13 10 nM. Here is the method:
The proliferation of HRECs was monitored by the crystal violet assay as described in our previous publication. […] After washing three times with PBS, the plates were air-dried and the remaining stain was dissolved in, 10% acetic acid and absorbance measured with a microplate reader at 540 nm.

Assay [2] has as its system HRECs. As to conditions: VEGF 100 ng/mL, Ap13 10 nM. The method, then:
Migration was determined by the QCM™ chemotaxis 5 μm 96-well cell migration assay (Chemicon International, Inc.) as per the manufacture’s protocol. […] After 16 h, cells that migrated to the basal side of the chamber insert membrane were detached, lysed and detected using CyQuant GR™ dye. Migration is expressed as percent increase in migrated cells compared to untreated cells.
This is another data set of the same source.

Take `CSCC[C@H](NC(=O)[C@@H]1CCCN1C(=O)CNC(=O)[C@H](CCCCN)NC(=O)[C@H](Cc1c[nH]cn1)NC(=O)[C@H](CO)NC(=O)[C@H](CC(C)C)NC(=O)[C@H](CCCNC(=N)N)NC(=O)[C@@H]1CCCN1C(=O)[C@H](CCCNC(=N)N)NC(=O)[C@@H](N)CCC(N)=O)C(=O)N1CCC[C@H]1C(=O)N[C@@H](Cc1ccccc1)C(=O)O` [Ap13, apelin-13]: the “Effect on HREC proliferation” value in assay [1] is recorded as “no significant effect”. Also, the “Effect on HREC migration” value in assay [2] is reported as “no significant effect”.
